Measurements published in ChEMBL document CHEMBL1138847, “Improved structure-activity relationship analysis of HIV-1 protease inhibitors using interaction kinetic data” (J Med Chem, 2004).

Columns and labels:
[1] = target: T1, Human immunodeficiency virus type 1 protease (Human immunodeficiency virus 1, UniProt Q72874); assay: Inhibition constant for human immunodeficiency virus type 1 protease
[2] = target: T1, Human immunodeficiency virus type 1 protease; assay: Binding affinity for human immunodeficiency virus type 1 protease

Ki [1]: 0.08 nM
Kd [2]: 0.1 nM
SMILES: Cc1cccc(C)c1OCC(=O)N[C@@H](Cc1ccccc1)[C@@H](O)C[C@H](Cc1ccccc1)NC(=O)[C@H](C(C)C)N1CCCNC1=O [LOPINAVIR]
